The text below walks through data of ChEMBL document CHEMBL4382216, “Asymmetric synthesis and biological evaluation of imidazole- and oxazole-containing synthetic lipoxin A4 mimetics (sLXms)” (Eur J Med Chem, 2019).

What all share (assay type): cell-based
Test [1] deals with T1, N-formyl peptide receptor 2 (Homo sapiens) (UniProt P25090).
T1 sequence (whole entry): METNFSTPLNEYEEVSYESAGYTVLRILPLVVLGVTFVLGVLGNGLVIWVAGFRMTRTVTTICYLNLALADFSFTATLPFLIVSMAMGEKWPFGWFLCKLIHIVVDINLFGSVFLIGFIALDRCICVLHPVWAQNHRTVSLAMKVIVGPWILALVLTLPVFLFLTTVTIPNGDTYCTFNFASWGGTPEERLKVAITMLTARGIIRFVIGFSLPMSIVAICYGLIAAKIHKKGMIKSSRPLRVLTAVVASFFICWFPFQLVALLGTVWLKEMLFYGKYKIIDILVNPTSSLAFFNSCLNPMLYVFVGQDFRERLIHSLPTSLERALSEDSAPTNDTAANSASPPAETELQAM
Put plainly: Agonist activity at ALX/FPR2 in human THP1 cells harboring NF-kB-Luc assessed as inhibition of LPS-induced NFkB signalling activation by measuring IL-1beta secretion at 10^-9 M pretreated for 30 mins followed by LPS stimulation for 24 hrs by electrochemiluminescence assay. Further details: scale not given: the % may be the effect or the level left.

The target in test [2] is T1, N-formyl peptide receptor 2 (Homo sapiens). Briefly: Agonist activity at ALX/FPR2 in human THP1 cells harboring NF-kB-Luc assessed as inhibition of LPS-induced NFkB signalling activation by measuring TNFalpha secretion at 10^-7 M pretreated for 30 mins followed by LPS stimulation for 24 hrs by electrochemiluminescence assay. Further details: scale not given: the % may be the effect or the level left.

For test [3] the target is unchanged. Briefly: Agonist activity at ALX/FPR2 in human THP1 cells harboring NF-kB-Luc assessed as inhibition of LPS-induced NFkB signalling activation by measuring IFNgamma secretion at 10^-7 M pretreated for 30 mins followed by LPS stimulation for 24 hrs by electrochemiluminescence assay. Further details: scale not given: the % may be the effect or the level left.
Test [4] shares this target. Put plainly: Agonist activity at ALX/FPR2 in human THP1 cells harboring NF-kB-Luc assessed as inhibition of LPS-induced NFkB signalling activation by measuring NF-kB activation level at 10^-9 M pretreated for 30 mins followed by LPS stimulation for 24 hrs by luciferase reporter gene assay. Further details: scale not given: the % may be the effect or the level left.
Test [5] has the same target. Briefly: Agonist activity at ALX/FPR2 in human THP1 cells harboring NF-kB-Luc assessed as inhibition of LPS-induced NFkB signalling activation by measuring NF-kB activation level at 10^-12 M pretreated for 30 mins followed by LPS stimulation for 24 hrs by luciferase reporter gene assay. Further details: scale not given: the % may be the effect or the level left. A general note: Reporter assays use an easily measured gene product as a stand-in for the process of interest.

Test [6] shares this target. Put plainly: Agonist activity at ALX/FPR2 in human THP1 cells harboring NF-kB-Luc assessed as inhibition of LPS-induced NFkB signalling activation by measuring IL-12p70 secretion at 10^-9 M pretreated for 30 mins followed by LPS stimulation for 24 hrs by electrochemiluminescence assay. Further details: scale not given: the % may be the effect or the level left.
The target is the same in test [7]. Briefly: Agonist activity at ALX/FPR2 in human THP1 cells harboring NF-kB-Luc assessed as inhibition of LPS-induced NFkB signalling activation by measuring IL-1beta secretion at 10^-11 M pretreated for 30 mins followed by LPS stimulation for 24 hrs by electrochemiluminescence assay. Further details: scale not given: the % may be the effect or the level left.
Test [8] shares this target. Put plainly: Agonist activity at ALX/FPR2 in human THP1 cells harboring NF-kB-Luc assessed as inhibition of LPS-induced NFkB signalling activation by measuring TNFalpha secretion at 10^-9 M pretreated for 30 mins followed by LPS stimulation for 24 hrs by electrochemiluminescence assay. Further details: scale not given: the % may be the effect or the level left.
Test [9] has the same target. Put plainly: Agonist activity at ALX/FPR2 in human THP1 cells harboring NF-kB-Luc assessed as inhibition of LPS-induced NFkB signalling activation by measuring NF-kB activation level at 10^-8 M pretreated for 30 mins followed by LPS stimulation for 24 hrs by luciferase reporter gene assay. Further details: scale not given: the % may be the effect or the level left.
For test [10] the target is unchanged. Briefly: Agonist activity at ALX/FPR2 in human THP1 cells harboring NF-kB-Luc assessed as inhibition of LPS-induced NFkB signalling activation by measuring IL-6 secretion at 10^-7 M pretreated for 30 mins followed by LPS stimulation for 24 hrs by electrochemiluminescence assay. Further details: scale not given: the % may be the effect or the level left.
Test [11] has the same target. Briefly: Agonist activity at ALX/FPR2 in human THP1 cells harboring NF-kB-Luc assessed as inhibition of LPS-induced NFkB signalling activation by measuring NF-kB activation level at 10^-10 M pretreated for 30 mins followed by LPS stimulation for 24 hrs by luciferase reporter gene assay. Further details: scale not given: the % may be the effect or the level left.
The target is the same in test [12]. Put plainly: Agonist activity at ALX/FPR2 in human THP1 cells harboring NF-kB-Luc assessed as inhibition of LPS-induced NFkB signalling activation by measuring IL-6 secretion at 10^-11 M pretreated for 30 mins followed by LPS stimulation for 24 hrs by electrochemiluminescence assay. Further details: scale not given: the % may be the effect or the level left.

Test [13] has the same target. Briefly: Agonist activity at ALX/FPR2 in human THP1 cells harboring NF-kB-Luc assessed as inhibition of LPS-induced NFkB signalling activation by measuring IL-1beta secretion at 10^-7 M pretreated for 30 mins followed by LPS stimulation for 24 hrs by electrochemiluminescence assay. Further details: scale not given: the % may be the effect or the level left.
For test [14] the target is unchanged. Briefly: Agonist activity at ALX/FPR2 in human THP1 cells harboring NF-kB-Luc assessed as inhibition of LPS-induced NFkB signalling activation by measuring TNFalpha secretion at 10^-11 M pretreated for 30 mins followed by LPS stimulation for 24 hrs by electrochemiluminescence assay. Further details: scale not given: the % may be the effect or the level left.

For test [15] the target is unchanged. Briefly: Agonist activity at ALX/FPR2 in human THP1 cells harboring NF-kB-Luc assessed as inhibition of LPS-induced NFkB signalling activation by measuring IL-6 secretion at 10^-9 M pretreated for 30 mins followed by LPS stimulation for 24 hrs by electrochemiluminescence assay. Further details: scale not given: the % may be the effect or the level left.
The target is the same in test [16]. Put plainly: Agonist activity at ALX/FPR2 in human THP1 cells harboring NF-kB-Luc assessed as inhibition of LPS-induced NFkB signalling activation by measuring IL-12p70 secretion at 10^-7 M pretreated for 30 mins followed by LPS stimulation for 24 hrs by electrochemiluminescence assay. Further details: scale not given: the % may be the effect or the level left.

The target is the same in test [17]. Briefly: Agonist activity at ALX/FPR2 in human THP1 cells harboring NF-kB-Luc assessed as inhibition of LPS-induced NFkB signalling activation by measuring IL-12p70 secretion at 10^-11 M pretreated for 30 mins followed by LPS stimulation for 24 hrs by electrochemiluminescence assay. Further details: scale not given: the % may be the effect or the level left.

Test [18] has the same target. Put plainly: Agonist activity at ALX/FPR2 in human THP1 cells harboring NF-kB-Luc assessed as inhibition of LPS-induced NFkB signalling activation by measuring NF-kB activation level at 10^-7 M pretreated for 30 mins followed by LPS stimulation for 24 hrs by luciferase reporter gene assay. Further details: scale not given: the % may be the effect or the level left.

For test [19] the target is unchanged. Briefly: Agonist activity at ALX/FPR2 in human THP1 cells harboring NF-kB-Luc assessed as inhibition of LPS-induced NFkB signalling activation by measuring NF-kB activation level at 10^-11 M pretreated for 30 mins followed by LPS stimulation for 24 hrs by luciferase reporter gene assay. Further details: scale not given: the % may be the effect or the level left.

Test [20] has the same target. Put plainly: Agonist activity at ALX/FPR2 in human THP1 cells harboring NF-kB-Luc assessed as inhibition of LPS-induced NFkB signalling activation by measuring IFNgamma secretion at 10^-11 M pretreated for 30 mins followed by LPS stimulation for 24 hrs by electrochemiluminescence assay. Further details: scale not given: the % may be the effect or the level left.
Test [21] shares this target. Briefly: Agonist activity at ALX/FPR2 in human THP1 cells harboring NF-kB-Luc assessed as inhibition of LPS-induced NFkB signalling activation by measuring NF-kB activation level at 10^-6 M pretreated for 30 mins followed by LPS stimulation for 24 hrs by luciferase reporter gene assay. Further details: scale not given: the % may be the effect or the level left.
The target is the same in test [22]. Put plainly: Agonist activity at ALX/FPR2 in human THP1 cells harboring NF-kB-Luc assessed as inhibition of LPS-induced NFkB signalling activation by measuring IFNgamma secretion at 10^-9 M pretreated for 30 mins followed by LPS stimulation for 24 hrs by electrochemiluminescence assay. Further details: scale not given: the % may be the effect or the level left.

Another test is filed under the species Homo sapiens. Put plainly: Activation of Luc-fused NFkB (unknown origin) expressed in non-stimulated human THP1 cells assessed as relative luminescence unit at 10^-8 M after 24 hrs by luciferase reporter gene assay (reference value: 100%).

With `CCCCC[C@@H](O)c1nc(-c2ccccc2)oc1/C=C/[C@@H](O)[C@@H](O)CCCC(=O)OC(C)C`, the Activity in test [1] was 284%; in [2], 67.9%; in test [3], 156%; in test [4] it was 99%; in test [5] it was 92%; in test [6] it was 231%. Besides, the Activity in test [7] came out at 275%; in [8], 90.1%; in test [9] it was 89.7%; in test [10], 84.8%; in [11] it was 100%; in test [12], 107%. Moreover, the Activity was determined as 89.7% in test [13]; 81.2% in test [14]; 115% in test [15]; 126% in [16]; 76.4% in [17]; 91.5% in test [18]. In addition, the Activity in [19] is 95.3%; in [20], 222%; in test [21] it was 85.9%; in test [22], 315%.

As to `CCC[C@@H](O)c1c(/C=C/[C@@H](O)[C@@H](O)CCCC(=O)OC)nc(C)n1C`, the Activity in [1] was 114%; in test [2], 79.7%; in [3], 55.4%; in [4], 87.1%; in test [5] it was 85.7%; in test [6] it was 75.1%. The Activity stood at 120% in [7]; 108% in [8]; 84.8% in test [9]; 72.7% in [10]; 85.8% in test [11]; 128% in test [12]. In addition, the Activity was 61.7% in test [13]; 116% in test [14]; 120% in test [15]; 55.8% in test [16]; 89.5% in [17]; 82.4% in test [18]. For the same molecule, the Activity in test [19] was determined as 86.2%; in [20], 68%; in test [21] it was 90.1%; in test [22], 69.3%; in the test filed under Homo sapiens it was 1.1%.

For `CCCCC[C@H](O)c1c(/C=C/[C@@H](O)[C@@H](O)CCCC(=O)OC)nc(C)n1C`, the Activity in test [1] amounted to 69.2%; in [2] it was 57.1%; in test [3], 51.1%; in test [4] it was 88.6%; in test [5], 92.7%; in test [6], 45%. In addition, the Activity in [7] was 96.4%; in test [8], 63.7%; in [9] it was 90.9%; in test [10], 74.1%; in [11] it was 83%; in [12] it was 92.6%. The Activity in test [13] stood at 35.1%; in test [14], 83%; in test [15] it was 70.9%; in test [16], 68.3%; in test [17], 60.2%; in test [18] it was 80.5%. Further, the Activity in test [19] came to 82.5%; in [20], 56%; in test [21], 76.1%; in test [22] it was 44.2%; in the test filed under Homo sapiens, 4.5%.

For the molecule `CCC[C@H](O)c1c(/C=C/[C@@H](O)[C@@H](O)CCCC(=O)OC)nc(C)n1C`, the Activity in test [1] was 105%; in test [2], 91.9%; in [3], 54.4%; in test [4], 78.6%; in [5] it was 81.8%; in test [6], 87.4%. Also, the Activity in test [7] was 117%; in test [8] it was 108%; in test [9], 75.9%; in [10], 110%; in test [11], 81.8%; in test [12] it was 123%. Also, the Activity stood at 61.7% in test [13]; 103% in [14]; 120% in [15]; 90.2% in test [16]; 114% in [17]; 78.1% in test [18]. Besides, the Activity in test [19] amounted to 80.4%; in [20] it was 50.9%; in test [21] it was 90.2%; in test [22] it was 50.4%.

As for `COC(=O)CCC[C@H](O)[C@H](O)/C=C/c1nc(C)n(C)c1[C@@H](C)O`, the Activity in test [1] turned out to be 121%; in [2] it was 96.1%; in test [3], 109%; in test [4], 80.9%; in test [5], 96.4%; in test [6], 62.8%. Moreover, the Activity is 109% in [7]; 112% in test [8]; 75.2% in [9]; 92.5% in test [10]; 81.9% in test [11]; 106% in test [12]. Further, the Activity stood at 2.6% in test [13]; 136% in test [14]; 107% in test [15]; 79.8% in [16]; 121% in test [17]; 78.5% in test [18]. Besides, the Activity in test [19] was found to be 83.3%; in [20], 172%; in test [21] it was 88.7%; in test [22], 79.6%.
